From PubChem BioAssay (Tox21)
“And” between values parts separate entries of the source, which are not always exact repeats. Equal entries are not always repeated. The list shows a part of the results, in another mix than the full data. Inconclusive results are not listed. More than one record can exist for a structure, and the calls need not agree. The source made the active and inactive calls. Unless noted, calls follow the shape of the dose curve; as a rule, active = well fitted curve in the direction sought with a large enough effect in the repeat runs; inconclusive = weak or mixed curves; inactive = no such curve, though single readings can be large; an effect the other way counts as inactive or inconclusive.

Sequences of proteins named here, by UniProt entry; tags and fusion partners are left off.
UniProt P19793, whole entry: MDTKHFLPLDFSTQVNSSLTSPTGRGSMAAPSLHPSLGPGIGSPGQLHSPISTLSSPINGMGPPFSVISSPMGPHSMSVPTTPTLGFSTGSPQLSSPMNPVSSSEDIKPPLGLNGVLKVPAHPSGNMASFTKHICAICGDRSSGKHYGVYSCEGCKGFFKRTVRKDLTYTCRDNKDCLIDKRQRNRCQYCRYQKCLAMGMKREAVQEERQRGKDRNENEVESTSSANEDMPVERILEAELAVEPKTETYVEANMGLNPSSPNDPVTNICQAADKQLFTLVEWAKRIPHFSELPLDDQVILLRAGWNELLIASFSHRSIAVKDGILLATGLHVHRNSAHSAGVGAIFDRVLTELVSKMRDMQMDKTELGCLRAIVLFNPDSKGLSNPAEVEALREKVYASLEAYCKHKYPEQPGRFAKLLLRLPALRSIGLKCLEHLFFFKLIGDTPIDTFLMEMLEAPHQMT
UniProt Q14994, whole entry: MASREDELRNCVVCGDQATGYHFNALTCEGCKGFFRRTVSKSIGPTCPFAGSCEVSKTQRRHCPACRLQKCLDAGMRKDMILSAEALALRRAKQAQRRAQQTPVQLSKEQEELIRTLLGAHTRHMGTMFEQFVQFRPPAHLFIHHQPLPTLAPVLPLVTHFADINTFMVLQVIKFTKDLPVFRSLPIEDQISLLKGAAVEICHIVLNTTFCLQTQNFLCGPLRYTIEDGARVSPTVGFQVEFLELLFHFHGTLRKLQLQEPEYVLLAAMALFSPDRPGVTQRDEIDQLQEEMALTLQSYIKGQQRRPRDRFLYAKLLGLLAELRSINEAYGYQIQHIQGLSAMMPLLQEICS

Legend:
[1] = qHTS assay to identify small molecule antagonists of the retinoid-related orphan receptor gamma (ROR-gamma) signaling pathway - cell viability counter screen (AID 1159520); conditions: Tet-on RORgamma CHO cells viability, ATP luminescence, 16 h; at 92.4 µM (top of the series) unless noted; also: nearly all actives have a fitted effect of over 50% in size
Summary of the method: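 Cytotoxicity was read from cellular ATP (CellTiter-Glo luminescence) after 16 hr at 37 C with 1 uM doxycycline induction. The inducer was added 2 hr after compound transfer to Tet-on ROR gamma CHO cells.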

[2] = molecular target: Nuclear receptor ROR-gamma (Homo sapiens) (UniProt P51449); test: qHTS assay to identify small molecule antagonists of the retinoid-related orphan receptor gamma (ROR-gamma) signaling pathway (AID 1159521;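 also: CHO cells with doxycycline inducible ROR-gamma driving an RORE luciferase reporter; top concentration of the series differs between compounds; nearly all actives have a fitted effect of over 50% in size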); conditions: Tet-on RORgamma CHO cells, RORE-luciferase, 16 h
[3] = qHTS assay to identify small molecule agonists of the AP-1 signaling pathway (AID 1159526; calls by dose curve); conditions: ME-180 (cervical carcinoma) AP-1-bla reporter, beta-lactamase FRET ratio, 5 h
[4] = molecular target: Retinoic acid receptor RXR-alpha (Homo sapiens) (UniProt P19793); test: qHTS assay to identify small molecule agonists of the RXR signaling pathway (AID 1159527; calls by dose curve; also: nearly all actives have a fitted effect of over 35% in size; also: potency is read from the fitted curve at half-maximal effect)
Summary of the method: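 16 hr incubation of compound-treated RXR-alpha-UAS-bla HEK 293T cells (2% charcoal-stripped FBS, 37 C) preceded a 2 hr room-temperature LiveBLAzer FRET substrate step and blue/green fluorescence measurement.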

[5] = qHTS assay to identify small molecule antagonists of the retinoid acid receptor (RAR) signaling pathway - cell viability counter screen (AID 1159551); conditions: C3RL4 cells viability, ATP luminescence (CellTiter-Glo), 6 h; at 92.4 µM (top of the series) unless noted; also: nearly all actives have a fitted effect of over 35% in size
Summary of the method: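 In this counter screen, the RARE-luciferase line C3RL4 was exposed for 6 h at 37 C and 5% CO2 to compounds with retinol at 1 uM final. Cellular ATP, read by luminescence, served as the viability measure.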

[6] = qHTS assay to identify small molecule antagonists of the retinoic acid receptor (RAR) signaling pathway (AID 1159552; also: nearly all actives have a fitted effect of over 50% in size); conditions: C3RL4 RARE luciferase reporter, retinol-stimulated, 6 h
Summary of the method: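 C3RL4 RARE-luc cells, overnight plating; retinol 1 uM final added right after compound; 6 hr 37 C; luciferase read at 30 min RT.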

[7] = qHTS assay to identify small molecule antagonists of the estrogen related receptor (ERR) signaling pathway from Tox21 library - cell viability counter screen (AID 1224834); conditions: ERR reporter cells viability, CellTiter-Fluor, 17.5 h; at 92.4 µM (top of the series); also: nearly all actives have a fitted effect of over 30% in size
Summary of the method: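 Counter screen run in ERR cells (2,000 cells/well): cells pre-incubated 6 h, then treated with compounds for 17.5 h at 37 C. Fluorescence was read 30 min after CellTiter-Fluor addition.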

[8] = qHTS assay to identify small molecule agonists of the constitutive androstane receptor (CAR) signaling pathway - cell viability counter screen (AID 1224836); conditions: HepG2-CYP2B6-hCAR viability, CellTiter-Fluor, 23 h, PK11195 added to every well; also: nearly all actives have a fitted effect of over 45% in size
Summary of the method: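 Using CellTiter-Fluor, viability of HepG2 cells harbouring hCAR and CYP2B6-2.2kb was measured following 23 h incubation with a 15-concentration compound series plus PK11195 (0.75 uM final).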

[9] = qHTS assay to identify small molecule antagonists of the constitutive androstane receptor (CAR) signaling pathway - cell viability counter screen (AID 1224837); conditions: HepG2-CYP2B6-hCAR viability, CellTiter-Fluor, 23 h, co-treated with 50 nM CITCO; at 92.4 µM (top of the series) unless noted; also: nearly all actives have a fitted effect of over 45% in size
Summary of the method: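 CITCO at 50 nM final was added alongside compounds (15 concentrations) to double-stable hCAR/CYP2B6-2.2kb HepG2 cells. Following 23 hr at 37 C, cell viability was quantified by CellTiter-Fluor fluorescence intensity.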

[10] = molecular target: Nuclear receptor subfamily 1 group I member 3 (Homo sapiens) (UniProt Q14994); test: qHTS assay to identify small molecule antagonists of the constitutive androstane receptor (CAR) signaling pathway (AID 1224838); conditions: HepG2-CYP2B6-hCAR luciferase, CITCO-stimulated, 24 h;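 also: HepG2 cells stably expressing hCAR with CYP2B6 luciferase reporter stimulated by CITCO; nearly all actives have a fitted effect of over 40% in size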
[11] = qHTS assay to identify small molecule antagonists of the vitamin D receptor (VDR) signaling pathway - cell viability counter screen (AID 743225); conditions: VDR-bla HEK293T viability, CellTiter-Glo luminescence, 16 h; also: nearly all actives have a fitted effect of over 50% in size
Summary of the method: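 Parallel cytotoxicity test: VDR-UAS-bla HEK 293T, 3 nM (final) 1-alpha,25-dihydroxyvitamin D3 with test compound, 16 h, 37C. Endpoint is CellTiter-Glo luminescence in the same wells.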

[12] = qHTS assay to identify small molecule agonists of the NFkB signaling pathway - cell viability counter screen (AID 1159515; calls by dose curve; also: nearly all actives have a fitted effect of over 55% in size); conditions: NFkB-bla ME-180 viability, CellTiter-Glo luminescence, 5 h
Summary of the method: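 Tox21 library compounds were tested for cytotoxicity against NFkB-bla ME-180 cells during a 5 hr exposure at 37 C. CellTiter-Glo luminescence served as the viability read-out.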

[13] = qHTS assay to identify small molecule agonists of the endoplasmic reticulum stress response signaling pathway - cell viability counter screen (AID 1159517; calls by dose curve); conditions: ESRE-bla HeLa viability, CellTiter-Glo luminescence, 5 h
Summary of the method: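 After overnight attachment, ESRE-bla HeLa cells were treated with Tox21 library compounds for 5 hr. CellTiter-Glo luminescence, read 30 min post-addition at room temperature, reported viability.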

[14] = qHTS assay to identify small molecule agonists of the retinoic acid receptor (RAR) signaling pathway (AID 1159553); conditions: C3RL4 RARE luciferase reporter, agonist, 6 h
Summary of the method: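 In this cell-based screen, 1,000 C3RL4 cells per well were cultured overnight, dosed with test chemicals in DMSO for 6 hr, and assessed for RARE luciferase luminescence.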
% is scaled to controls: 0 for no effect and ±100 for the full control effect.

N#CBr
inactive: activity, negative = cytotoxicity [1] 2.81% | activity change, negative = inhibition ([2]; at 92.4 µM (top of the series)) 23.8% | activation ([3]; at 76.8 µM (top of the series)) -7.65% | Potency [4] | activity change, negative = cytotoxicity [5] 0.78% | activity, negative = inhibition ([6]; at 92.4 µM (top of the series)) 58.1% | viability change, negative = cytotoxic [7] 3.45% | viability change, negative = cytotoxic ([8]; at 92.4 µM (top of the series)) 1.67% | activity change, negative = cytotoxicity [9] 5.01% | activity, negative = inhibition ([10]; at 92.4 µM (top of the series)) 4.27%

C/C1=C2N=C(/C=C3N=C(/C(C)=C4\[N-][C@@](C)([C@@H]5N=C1[C@](C)(CCC(=O)NC[C@@H](C)OP(=O)([O-])O[C@H]1[C@@H](O)[C@@H](n6cnc7cc(C)c(C)cc76)O[C@@H]1CO)[C@H]5CC(N)=O)[C@@](C)(CC(N)=O)[C@@H]4CCC(N)=O)[C@@](C)(CC(N)=O)[C@@H]\3CCC(N)=O)C(C)(C)[C@@H]/2CCC(N)=O.[C-]#N.[Co+3]
inactive: viability change, negative = cytotoxic ([11]; at 61 µM (top of the series)) 6.16% | activity, negative = cytotoxic ([12]; at 61 µM (top of the series)) 6.46% | activity, negative = cytotoxicity [1] -12.3% [at 42.5 µM] | activation ([3]; at 35.3 µM (top of the series)) -0.628% | Potency [4] | activity, negative = inhibition ([6]; at 42.5 µM (top of the series)) -7.58% | viability change, negative = cytotoxic ([8]; at 42.5 µM (top of the series)) -20.1% | activity change, negative = cytotoxicity [9] -20.3% [at 42.5 µM] | activity, negative = inhibition ([10]; at 42.5 µM (top of the series)) -7.87%

COP(C)(=O)OC
inactive: viability change, negative = cytotoxic ([11]; at 61 µM (top of the series)) 1.21% | viability change, negative = cytotoxic ([11]; at 78.8 µM (top of the series)) 5.86% | activity, negative = cytotoxic ([12]; at 61 µM (top of the series)) 14.4% | activity, negative = cytotoxic ([12]; at 78.8 µM (top of the series)) 0.994% | activity change, negative = cytotoxicity ([13]; at 61 µM (top of the series)) -12.2% | activity change, negative = cytotoxicity ([13]; at 78.8 µM (top of the series)) 11.8% | activity, negative = cytotoxicity [1] 5.38% and 2.27% | activity change, negative = inhibition ([2]; at 92.4 µM (top of the series)) -7.22% and 11.3% | activation ([3]; at 76.8 µM (top of the series)) -0.182% | Potency [4] | activity change, negative = cytotoxicity [5] 2.81% and 0.898% | activity, negative = inhibition ([6]; at 92.4 µM (top of the series)) -0.662% and 49.6% | activation ([14]; at 94.8 µM (top of the series)) 0.226% | viability change, negative = cytotoxic [7] 0.827% and -1.2% | viability change, negative = cytotoxic ([8]; at 92.4 µM (top of the series)) -6.92% and 1.24% | activity change, negative = cytotoxicity [9] -2.15% and -6.06%

CCOP(=O)(CC)Oc1ccc([N+](=O)[O-])cc1 (centres undefined)
inactive: viability change, negative = cytotoxic ([11]; at 61 µM (top of the series)) 13.3% | activity, negative = cytotoxic ([12]; at 61 µM (top of the series)) 3.88% | activity change, negative = cytotoxicity ([13]; at 61 µM (top of the series)) -3.16% | activity, negative = cytotoxicity [1] -4.09% [at 42.5 µM] | activity change, negative = inhibition ([2]; at 42.5 µM (top of the series)) -0.858% | activation ([3]; at 35.3 µM (top of the series)) -3.53% | activity change, negative = cytotoxicity [5] 0.0953% [at 42.5 µM] | activity, negative = inhibition ([6]; at 42.5 µM (top of the series)) -1.04% | activation ([14]; at 73.3 µM (top of the series)) -1.26% | viability change, negative = cytotoxic ([8]; at 42.5 µM (top of the series)) -12.6% | activity change, negative = cytotoxicity [9] -14.8% [at 42.5 µM]

Cc1ccc([N+](=O)[O-])cc1[N+](=O)[O-]
inactive and 19.5 µM (active): Potency [4]
inactive: viability change, negative = cytotoxic ([11]; at 61 µM (top of the series)) 19.8% and -8.07% | activity, negative = cytotoxic ([12]; at 61 µM (top of the series)) 5.9% and 11% | activity change, negative = cytotoxicity ([13]; at 61 µM (top of the series)) -9.96% and -21.3% | activity, negative = cytotoxicity [1] 0.619% | activity change, negative = inhibition ([2]; at 92.4 µM (top of the series)) -17.4% and 1.88% | activation ([3]; at 76.8 µM (top of the series)) -2.54% and -5.26% | activity change, negative = cytotoxicity [5] -1.2% and 3.42% | activity, negative = inhibition ([6]; at 92.4 µM (top of the series)) 0.562% and -13% | activation ([14]; at 73.3 µM (top of the series)) -1.63% and -0.0921% | viability change, negative = cytotoxic [7] 3.98% and 6.27% | activity change, negative = cytotoxicity [9] -0.297% and 2.43% | activity, negative = inhibition ([10]; at 92.4 µM (top of the series)) 27% and 24.4%
